Laboratory results from patent publication US8822542B2, “Isoketal scavengers and mitigation of disorders involving oxidative injury” (Vanderbilt University, priority 2005, dated 2014).

Sequences of proteins named here, by UniProt entry; tags and fusion partners are left off.
UniProt Q14524, whole entry, looked up: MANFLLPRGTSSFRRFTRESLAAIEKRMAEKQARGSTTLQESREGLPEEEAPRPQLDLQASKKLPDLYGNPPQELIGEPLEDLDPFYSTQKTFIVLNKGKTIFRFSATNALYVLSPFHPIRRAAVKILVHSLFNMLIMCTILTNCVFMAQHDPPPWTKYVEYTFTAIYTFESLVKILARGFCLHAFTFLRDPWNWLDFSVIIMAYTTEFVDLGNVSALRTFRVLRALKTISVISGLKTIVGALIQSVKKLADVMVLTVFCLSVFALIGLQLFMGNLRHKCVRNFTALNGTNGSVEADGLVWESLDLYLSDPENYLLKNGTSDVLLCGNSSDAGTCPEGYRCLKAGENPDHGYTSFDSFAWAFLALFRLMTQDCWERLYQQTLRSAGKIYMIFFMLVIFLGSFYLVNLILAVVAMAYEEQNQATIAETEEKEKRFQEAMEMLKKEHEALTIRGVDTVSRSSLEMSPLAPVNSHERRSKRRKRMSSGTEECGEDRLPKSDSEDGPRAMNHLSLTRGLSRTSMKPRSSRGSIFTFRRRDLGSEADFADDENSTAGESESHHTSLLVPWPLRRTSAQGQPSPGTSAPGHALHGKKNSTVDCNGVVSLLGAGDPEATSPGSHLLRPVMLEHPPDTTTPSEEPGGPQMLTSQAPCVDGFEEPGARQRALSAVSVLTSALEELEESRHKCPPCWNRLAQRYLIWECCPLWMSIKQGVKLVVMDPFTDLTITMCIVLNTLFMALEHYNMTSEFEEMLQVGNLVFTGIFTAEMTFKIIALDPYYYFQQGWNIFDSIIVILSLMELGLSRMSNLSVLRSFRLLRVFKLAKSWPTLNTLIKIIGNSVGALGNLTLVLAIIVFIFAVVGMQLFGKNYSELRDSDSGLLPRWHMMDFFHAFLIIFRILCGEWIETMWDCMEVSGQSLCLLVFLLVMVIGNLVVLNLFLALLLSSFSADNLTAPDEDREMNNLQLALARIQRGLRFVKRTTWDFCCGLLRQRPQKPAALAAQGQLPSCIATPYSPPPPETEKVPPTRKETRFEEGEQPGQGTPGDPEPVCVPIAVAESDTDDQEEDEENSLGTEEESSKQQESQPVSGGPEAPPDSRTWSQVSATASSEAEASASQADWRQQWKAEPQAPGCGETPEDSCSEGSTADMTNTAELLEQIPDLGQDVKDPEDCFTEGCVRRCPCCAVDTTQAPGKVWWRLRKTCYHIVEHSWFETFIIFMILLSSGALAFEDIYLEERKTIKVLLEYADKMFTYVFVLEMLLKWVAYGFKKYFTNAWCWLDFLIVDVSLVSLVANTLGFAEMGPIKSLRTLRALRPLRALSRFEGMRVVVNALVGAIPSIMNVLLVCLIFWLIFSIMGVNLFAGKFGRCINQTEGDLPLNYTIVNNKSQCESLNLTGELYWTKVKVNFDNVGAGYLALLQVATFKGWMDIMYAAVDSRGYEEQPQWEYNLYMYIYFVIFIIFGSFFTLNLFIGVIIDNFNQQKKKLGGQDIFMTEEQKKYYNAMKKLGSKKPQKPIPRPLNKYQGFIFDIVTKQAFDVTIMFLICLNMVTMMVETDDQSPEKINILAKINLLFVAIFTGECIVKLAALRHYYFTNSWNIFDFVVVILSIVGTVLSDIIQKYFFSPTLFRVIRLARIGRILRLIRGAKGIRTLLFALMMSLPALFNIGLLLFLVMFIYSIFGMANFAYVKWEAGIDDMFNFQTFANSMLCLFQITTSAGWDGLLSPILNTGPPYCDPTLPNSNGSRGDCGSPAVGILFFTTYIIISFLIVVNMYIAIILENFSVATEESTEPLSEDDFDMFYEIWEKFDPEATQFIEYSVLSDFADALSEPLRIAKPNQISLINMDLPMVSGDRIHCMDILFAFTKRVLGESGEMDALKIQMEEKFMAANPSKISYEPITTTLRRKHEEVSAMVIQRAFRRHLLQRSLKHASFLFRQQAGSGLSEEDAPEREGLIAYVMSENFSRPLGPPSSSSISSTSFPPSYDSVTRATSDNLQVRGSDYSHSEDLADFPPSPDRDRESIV

Target: human cardiac Na channel (hH1, or SCN5A) (Homo sapiens, UniProt Q14524)
Assay: Whole-cell Na current recording, wild-type hH1 expressed in HEK-293 cells
Details: for P500/P1 (use-dependence): 5 Hz, 500 pulses

Compound: CC(C)(C)OO [t-BHP, tert-butyl hydroperoxide]
- INa decay: no effect on INa decay
- V1/2 voltage-dependence of activation: 42.4±1.5 mV
- P500/P1 (use-dependence) (alone, flecainide 1 μM, IsoK 10 μM): 0.95±0.04
- P500/P1 (use-dependence) (in the presence of flecainide 1 μM): 0.72±0.05
- hyperpolarization of V1/2 (30 mins preincubation): 7 mV
- V1/2 voltage-dependence of inactivation (availability) (HEK-293, t-BHP 1 mM, Iso-K 10 μM, flecainide 1 μM): −93.9±1.9 mV
- activation of sodium channels (over a range of membrane potentials): no effect on the activation
